For this experiment, the target named is T1, ACVR1 (ALK2) (Homo sapiens, UniProt Q04771).
T1 sequence (Q04771 21-509): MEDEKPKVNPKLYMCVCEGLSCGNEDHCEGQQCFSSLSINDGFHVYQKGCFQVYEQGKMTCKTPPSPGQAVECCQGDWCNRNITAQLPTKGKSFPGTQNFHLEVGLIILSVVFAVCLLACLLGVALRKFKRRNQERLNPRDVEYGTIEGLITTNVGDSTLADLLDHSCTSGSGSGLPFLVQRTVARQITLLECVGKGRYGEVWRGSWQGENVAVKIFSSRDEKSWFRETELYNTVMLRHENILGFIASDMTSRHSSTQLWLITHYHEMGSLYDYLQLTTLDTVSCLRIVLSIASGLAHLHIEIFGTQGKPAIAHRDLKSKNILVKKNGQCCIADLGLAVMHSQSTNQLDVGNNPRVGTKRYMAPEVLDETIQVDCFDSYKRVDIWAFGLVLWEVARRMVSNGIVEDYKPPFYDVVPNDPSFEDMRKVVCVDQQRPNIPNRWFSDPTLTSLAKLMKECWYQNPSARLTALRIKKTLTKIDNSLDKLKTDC
As to conditions: read-out: ALK2 Kd; LanthaScreen binding; N/A, not active at 1 µM. On the technique in general: Time-resolved FRET reads energy transfer from a long-lived donor to a nearby acceptor.

In general, Kd refers to the free concentration of one partner at which half of the binding sites on the other are occupied at equilibrium, for simple one-to-one binding.

In the case of `CNC(=O)[C@H]1C[C@H](n2c(-c3cc(OC)c(OC)c(OC)c3)nc3ccc(C(=O)NCCCN(C)C)cc32)C1` [CDD-2281], the Kd was determined as 5.2 nM.

Regarding `CNC(=O)[C@H]1C[C@H](n2c(-c3cc(OC)c(OC)c(OC)c3)nc3ccc(C(=O)NCC4CCN(C)CC4)cc32)C1` [CDD-2282], the Kd worked out at 5.9 nM.

`CNC(=O)[C@H]1C[C@H](n2c(-c3cccc(OC)c3)nc3ccc(C(=O)NCCCN4CCN(c5ccccc5)CC4)cc32)C1` [CDD-2313]: the Kd was found to be 5.6 nM.

As for `CNC(=O)[C@H]1C[C@H](n2c(-c3cc(OC)cc(OC)c3)nc3ccc(C(=O)NCCCN4CCN(c5ccccc5)CC4)cc32)C1` [CDD-2314], the Kd stood at 6.9 nM.

Turning to `COc1cc(-c2nc3ccc(C(=O)NCCCN4CCN(c5ccccc5)CC4)cc3n2C2CCC2)cc(OC)c1OC` [CDD-2315], the Kd was found to be 0.8 nM.

As to `CNC(=O)CCCn1c(-c2cc(OC)c(OC)c(OC)c2)nc2ccc(C(=O)NCCCN3CCN(c4ccccc4)CC3)cc21` [CDD-2316], the dissociation constant (Kd) is 51.4 nM.

In the case of `CNC(=O)[C@H]1C[C@H](n2c(-c3ccccc3)nc3ccc(C(=O)NCCCN4CCN(c5ccccc5)CC4)cc32)C1` [CDD-2317], the equilibrium dissociation constant (Kd) is 57.4 nM.

Consider `CNC(=O)[C@H]1C[C@H](n2c(-c3ccc(C(N)=O)cc3)nc3ccc(C(=O)NCCCN4CCN(c5ccccc5)CC4)cc32)C1` [CDD-2339], for which the Kd came to 34.1 nM.

In the case of `CNC(=O)[C@H]1C[C@H](n2c(-c3cc(F)cc(OC)c3)nc3ccc(C(=O)NCCCN4CCN(c5ccccc5)CC4)cc32)C1` [CDD-2340], the dissociation constant (Kd) stood at 6.9 nM.

As for `CNC(=O)[C@H]1C[C@H](n2c(-c3cc(OC)ccc3OC)nc3ccc(C(=O)NCCCN4CCN(c5cccc(C)c5C)CC4)cc32)C1` [CDD-2420], the Kd turned out to be 0.9 nM.

`CNC(=O)[C@H]1C[C@H](n2c(-c3ccc(OC)c(OC)c3)nc3ccc(C(=O)NCCCN4CCN(c5cccc(C)c5C)CC4)cc32)C1` [CDD-2421]: the dissociation constant Kd was determined as 2.1 nM.

As to `COc1cc(-c2nc3ccc(C(=O)NCCC(=O)O)cc3n2C2CCC2)cc(OC)c1OC` [CDD-2464], the Kd worked out at 79 nM.

Regarding `COc1cc(-c2nc3ccc(C(=O)NCCCO)cc3n2C2CCC2)cc(OC)c1OC` [CDD-2465], the Kd was 15.4 nM.

For the origin of these results see paper PMC11588046 (Proceedings of the National Academy of Sciences of the …, 2024).
